This assay has as its system α-tubulin, β-tubulin in HeLa cells. Kind of assay: Immunofluorescence assay of microtubules, HeLa. The format is cell-based, human. Conditions: 24 h, 3k 1, 2, and 4 μM, colchicine and paclitaxel 2.0 μM. How it is done: Experimental groups were established, including a blank control group (0 μM), positive drug groups treated with paclitaxel (2.0 μM) and colchicine (2.0 μM), and intervention groups treated with 3k at concentrations of 1, 2, and 4 μM, all for a duration of 24 h. The cells were then fixed by adding 400 μL of 4% paraformaldehyde to each well and incubating for 30 min. 0.1% Triton was added at a volume of 400 μL per well and allowed to incubate for 10 min. Following this, goat serum (10%) was added at 400 μL per well and incubated for 40 min. Primary antibodies (α-tubulin, β-tubulin) were then incubated overnight at a temperature of 4 °C. Subsequently, secondary antibodies (α-mouse, β-rabbit) were incubated for 1.5 h. DAPI staining was performed at 400 μL per well for 5 min, followed by a wash with PBS. Cell climbing tablets were removed and inverted onto slides with sealer. Photographs were captured using a fluorescent inverted microscope.

Turning to `COc1cc2c(c(OC)c1OC)-c1ccc(OC)c(=O)cc1[C@@H](NC(C)=O)CC2` [colchicine], the “microtubule immunofluorescence (α green, β red)” value is “green and red fluorescence of the encapsulated cells weakened”.

These data come from publication PMC10707934, “Design and Synthesis of Novel α-Methylchalcone Derivatives, Anti-Cervical Cancer Activity, and Reversal of Drug Resistance in HeLa/DDP Cells” (Molecules, 2023).
